Data: patent publication US11160272B2, “Methods for preserving tissue with medical grade honey” (TRITICUM EXPLOITATIE B.V., priority 2017, dated 2021)

Tested on: bovine ovarian cortex tissue
Experiment: Cellular cytotoxicity (lactate dehydrogenase, LDH, in cell culture supernatant)
Type: cell-based
Settings: 4 h, 24 h and 48 h; no statistically significant differences between groups/time periods
Experimental: Four mature crossbred beef cows (12 months of age) were used for this study. After collection in a local abattoir, the bovine ovarian cortex tissue samples (dissected from medulla and further cut into ultra-thin strips) were cultured in vitro [TCM-199 medium with 10% cow serum] and distributed in four groups, including (1) blank control group, (2) VEGF (50 ng.mL-1) group, (3) L-Mesitran Soft (0.2%) group, and (4) L-Mesitran Ointment (0.2%) group. The 0.2% v/v concentration (L-Mesitran) was chosen according to the highest reported pro-angiogenic effect for this medical grade honey in an in vitro tissue culture. The ovarian cortex endothelial immunolocalization was quantified using Factor VIII [9] R Ag. […] Cellular cytotoxicity (quantitation of lactate dehydrogenase, LDH [11], in cell culture supernatant) was also evaluated in the same mentioned time periods (CytoTox 96® Non-Radioactive Cytotoxicity Assay G1782, Promega GloMax Multi Detection System).
Data from ovarian cortex tissue endothelial density (immunohistochemistry data) and LDH quantification in cell culture supernatant, were analysed using the proc glimmix of SAS (Statistical Analysis Systems, SAS Inst., Inc., Cary, N.C., USA). […] The means of each treatment/hours were calculated and compared by the PDIFF multiple comparison test. […]

VEGF
LDH (cytotoxicity) trend over time periods: increasing trend
